From patent US20180086837A1

By UniProt entry, the sequences of proteins in these tests, tags left out.
UniProt P61073, whole entry F189V: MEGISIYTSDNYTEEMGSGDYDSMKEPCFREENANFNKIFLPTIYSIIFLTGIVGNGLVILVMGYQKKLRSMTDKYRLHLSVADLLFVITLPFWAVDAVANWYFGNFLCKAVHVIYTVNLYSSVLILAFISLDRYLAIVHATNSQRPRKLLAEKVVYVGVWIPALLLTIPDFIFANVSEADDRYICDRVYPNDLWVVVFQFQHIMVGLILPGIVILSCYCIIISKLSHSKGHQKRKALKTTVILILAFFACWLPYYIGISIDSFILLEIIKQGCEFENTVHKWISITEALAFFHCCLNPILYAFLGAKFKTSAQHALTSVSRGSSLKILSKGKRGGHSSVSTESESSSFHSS
UniProt P61073, whole entry D187V: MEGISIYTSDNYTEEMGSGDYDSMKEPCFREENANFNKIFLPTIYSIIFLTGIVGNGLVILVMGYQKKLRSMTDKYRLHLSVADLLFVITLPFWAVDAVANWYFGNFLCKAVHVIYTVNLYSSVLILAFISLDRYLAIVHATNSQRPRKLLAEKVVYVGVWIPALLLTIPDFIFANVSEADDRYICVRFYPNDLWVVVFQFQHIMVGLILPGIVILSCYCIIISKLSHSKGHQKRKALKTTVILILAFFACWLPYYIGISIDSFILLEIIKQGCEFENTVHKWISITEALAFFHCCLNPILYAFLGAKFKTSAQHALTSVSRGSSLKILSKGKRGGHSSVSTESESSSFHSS

What was measured:
hCXCR4 F189V (human) [1] = molecular target: hCXCR4 F189V (human) (UniProt P61073); assay: flow cytometry, transfected HEK293T cells; normalisation reference (column 100 nM)
hCXCR4 D187V (human) [2] = molecular target: hCXCR4 D187V (human) (UniProt P61073); assay: as above
hCXCR4 F189V (human) [3] = molecular target: hCXCR4 F189V (human) (UniProt P61073); assay: flow cytometry, transfected HEK293T cells; normalisation reference (column 10 nM)
hCXCR4 D187V (human) [4] = molecular target: hCXCR4 D187V (human) (UniProt P61073); assay: as above

Measured: % binding relative to hCXCR4

anti-CXCR4 monoclonal antibody 12G5 (R&D Systems, MAB170)
100%: all assays above
